In ChEMBL document CHEMBL1150002, “Synthesis and biological activities of new heterocyclic aromatic retinoids” (Bioorg Med Chem Lett, 1997):

Tested on: F9
Test: Compound was tested for its ability to induce differentiation of F9 cells as estimated by plasminogen activator secretion (PA)
Format: functional, cell-based
Conditions: Mus musculus

COc1ccc(C2=Cc3ccc(C(=O)O)cc3OC2)cc1C12C[C@H]3C[C@@H](C1)C[C@@H](C2)C3
AC50: 34 nM
